We go through one molecule from ChEMBL document CHEMBL5634139, “Novel substituted 4-(Arylethynyl)-Pyrrolo[2,3-d]pyrimidines negative allosteric modulators (NAMs) of the metabotropic glutamate receptor subtype 5 (mGlu5) Treat depressive disorder in mice” (Eur J Med Chem, 2023).

Amino acid sequences for entries named in this document (tags omitted).
UniProt P31424, whole entry: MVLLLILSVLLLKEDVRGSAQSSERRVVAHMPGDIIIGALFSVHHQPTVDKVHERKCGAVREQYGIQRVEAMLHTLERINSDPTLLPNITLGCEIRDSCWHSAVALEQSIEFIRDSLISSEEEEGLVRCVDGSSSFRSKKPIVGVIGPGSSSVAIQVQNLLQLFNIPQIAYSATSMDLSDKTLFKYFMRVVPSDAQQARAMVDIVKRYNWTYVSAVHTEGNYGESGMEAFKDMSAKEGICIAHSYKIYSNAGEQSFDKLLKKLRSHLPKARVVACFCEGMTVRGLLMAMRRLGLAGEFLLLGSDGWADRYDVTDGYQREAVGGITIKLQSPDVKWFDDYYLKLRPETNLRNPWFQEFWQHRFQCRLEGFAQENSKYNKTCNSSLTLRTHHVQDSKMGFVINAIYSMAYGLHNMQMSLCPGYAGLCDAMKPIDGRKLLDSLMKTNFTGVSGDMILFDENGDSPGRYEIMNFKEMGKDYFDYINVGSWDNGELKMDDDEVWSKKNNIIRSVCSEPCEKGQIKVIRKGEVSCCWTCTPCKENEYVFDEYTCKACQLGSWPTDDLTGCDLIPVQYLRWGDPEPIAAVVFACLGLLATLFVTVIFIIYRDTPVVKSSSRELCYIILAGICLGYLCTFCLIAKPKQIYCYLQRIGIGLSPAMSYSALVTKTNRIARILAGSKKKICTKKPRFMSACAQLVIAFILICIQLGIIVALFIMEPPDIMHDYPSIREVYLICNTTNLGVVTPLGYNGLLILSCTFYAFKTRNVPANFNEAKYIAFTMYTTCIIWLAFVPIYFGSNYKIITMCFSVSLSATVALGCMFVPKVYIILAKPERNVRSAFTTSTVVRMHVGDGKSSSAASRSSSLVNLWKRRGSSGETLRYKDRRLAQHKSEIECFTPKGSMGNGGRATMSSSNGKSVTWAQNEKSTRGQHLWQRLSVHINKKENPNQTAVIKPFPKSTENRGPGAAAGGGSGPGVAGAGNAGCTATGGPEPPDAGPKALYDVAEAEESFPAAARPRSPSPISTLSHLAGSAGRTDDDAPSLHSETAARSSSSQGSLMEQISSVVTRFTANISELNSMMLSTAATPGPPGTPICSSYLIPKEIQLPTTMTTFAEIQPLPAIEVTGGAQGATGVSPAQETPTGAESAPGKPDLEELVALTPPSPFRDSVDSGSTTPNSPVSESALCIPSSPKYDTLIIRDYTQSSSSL

The assay has as its target Metabotropic glutamate receptor 5 (Rattus norvegicus, UniProt P31424). The experiment in a line: Negative allosteric modulation of rat mGluR5 expressed in HEK293 assessed as decrease in intracellular calcium incubated for 30 mins by Fluo-6 calcium dye based FLIPR assay. It counts as functional, cell-based.

In general, IC50 refers to the point on the concentration scale where inhibition reaches its midpoint.

With `Cc1cccc(C#Cc2ccccc2)n1`, the IC50 was found to be 0.0208 µM.
